From PubChem BioAssay AID602141 (Sanford-Burnham Center for Chemical Genomics, 2011)
This is a selection; strong and weak results do not stand in their true shares. Some salts or complexes appear as unconnected parts, following the source record. Activity calls are given as the source filed them.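 Rule for the calls: active = corrected activity change at or below -50% at 5 µM; inactive = the rest.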

experiment: KKLEB cell viability reduction – uHTS, fluorescence assay plates, cytotoxicity control for CF NF-kB inhibitor project, primary screen (AID 602141); details: KKLEB CF airway cells viability, ATPlite luminescence, overnight; at 5 µM; active compounds read low; cells stimulated with P. aeruginosa culture filtrate

Row | Compound | activity change (cytotoxicity)
1 | CCOP(C)(=S)SCC(=O)NC(C)(CC)C(=O)O (stereo unspecified) | inactive: -1.3%
2 | O=C(OC1CN2CCC1CC2)c1ccc([N+](=O)[O-])cc1 (stereo unspecified) | inactive: -4.2%
3 | O=C(OCCN1CCN(CCOCc2ccccc2)CC1)C(O)(c1ccccc1)c1ccccc1 | inactive: 2.7%
4 | COc1ccc2c(c1O)-c1c(O)c(OC)cc3c1[C@H](C2)[N+](C)(C)CC3.O=[N+]([O-])c1cc([N+](=O)[O-])c([O-])c([N+](=O)[O-])c1[O-] | inactive: 10%
5 | O=[N+]([O-])c1cc([N+](=O)[O-])c(Nc2ccc(Cl)cc2)c([N+](=O)[O-])c1 | inactive: -14.1%
6 | CP(=O)(Nc1ccccc1F)Oc1ccccc1 (stereo unspecified) | inactive: -9%
7 | CC(C)c1ccc(OP(C)(=O)Nc2ccc(SC(F)(F)F)cc2)cc1 (stereo unspecified) | inactive: 10.5%
8 | Cc1c([N+](=O)[O-])cc([N+](=O)[O-])c(Br)c1[N+](=O)[O-] | inactive: -1.8%
9 | CCN(CC)CCCOC(=O)C(O)(c1ccccc1)C1CCCCC1 (stereo unspecified) | inactive: -2.3%
10 | CP(=O)(Nc1ccccc1)Oc1ccc(F)cc1 (stereo unspecified) | inactive: -6.3%
11 | O=[N+]([O-])c1cc([N+](=O)[O-])c(OC2CCCCC2O)c([N+](=O)[O-])c1 (stereo unspecified) | inactive: -1.9%
12 | CCCCCOc1ccc(NP(C)(=O)Oc2ccc(Cl)cc2Cl)cc1 (stereo unspecified) | inactive: 13.7%
13 | CCOC(=O)c1ccc(NP(C)(=O)Oc2ccc(F)cc2)cc1 (stereo unspecified) | inactive: -2%
14 | COc1ccc(OP(C)(=O)Nc2ccc(SC(F)(F)F)cc2)cc1 (stereo unspecified) | inactive: 3.4%
15 | CP(=O)(OCCOc1ccccc1)OCCOc1ccccc1 | inactive: 2.8%
16 | CP(=O)(Nc1ccc(Cl)cc1Cl)Oc1ccccc1 (stereo unspecified) | inactive: 5%
17 | CCCCCCCCCCCCCCCC1C[N+](C)(C)CCOP(C)(=O)O1 (stereo unspecified) | inactive: -23%
18 | Cc1cc(C)cc(OP(C)(=O)Nc2cccc(C(F)(F)F)c2)c1 (stereo unspecified) | inactive: -1.1%
19 | O=C1C(O)=C([N+](=O)[O-])C(=O)C(O)=C1[N+](=O)[O-] | inactive: 5.8%
20 | COc1ccccc1OP(C)(=O)Nc1ccc(C)c(C)c1 (stereo unspecified) | inactive: -1.5%
21 | COc1ccc(OP(C)(=O)Nc2ccccc2Br)cc1 (stereo unspecified) | inactive: 0.7%

Row | Compound | activity change (cytotoxicity)
22 | O=[N+]([O-])c1cc([N+](=O)[O-])c(Nc2ccccn2)c([N+](=O)[O-])c1 | inactive: 4.1%
23 | Cc1c(NP(C)(=O)Oc2ccc(C(C)C)cc2)c(=O)n(-c2ccccc2)n1C (stereo unspecified) | inactive: -10.3%
24 | COc1ccccc1OP(C)(=O)Nc1ccc(C)cc1C (stereo unspecified) | inactive: -10.7%
25 | CP(=O)(Nc1ccccn1)Oc1ccccc1 (stereo unspecified) | inactive: -3.8%
26 | CCc1ccc(OP(C)(=O)O)cc1 | inactive: -11.1%
27 | COc1ccccc1OP(C)(=O)Nc1ccc(Br)cc1 (stereo unspecified) | inactive: 10.3%
28 | COc1ccc(OP(C)(=O)Nc2ccccn2)cc1 (stereo unspecified) | inactive: -21.1%
29 | CN(C)CCOC(=O)C(O)(c1ccccc1)C1CCCC1 (stereo unspecified) | inactive: -24%
30 | CC(C)(C)c1ccc(OP(C)(=O)O)cc1 | inactive: 8.4%
31 | COc1ccccc1OP(C)(=O)Nc1ccccc1Br (stereo unspecified) | inactive: 8.8%
32 | CP(=O)(Nc1ccc(Cl)cc1)Oc1ccc(F)cc1 (stereo unspecified) | inactive: -13%
33 | CN(C)C(=O)c1c([N+](=O)[O-])cc([N+](=O)[O-])cc1[N+](=O)[O-] | inactive: 13.8%
34 | COc1ccc(OP(C)(=O)Nc2ccc(Br)cc2)cc1 (stereo unspecified) | inactive: 6.2%
35 | CCN(CC)CC(O)COC(=O)C(O)(c1ccccc1)C1CCCCC1 (stereo unspecified) | inactive: -4.5%
36 | O=C(OCCCN1CCCC1)C(O)(c1ccccc1)C1CCCCC1 (stereo unspecified) | inactive: 7%
37 | COc1ccccc1OP(C)(=O)Nc1c(C)n(C)n(-c2ccccc2)c1=O (stereo unspecified) | inactive: 6.5%
38 | CCc1ccc(OP(C)(=O)Nc2cccnc2)cc1 (stereo unspecified) | inactive: 0.9%
39 | CP(=O)(Oc1ccccc1)N1CCOC1=O (stereo unspecified) | inactive: 2.2%
40 | CCOC(=O)c1ccc(NP(C)(=O)Oc2ccc(Cl)cc2)cc1 (stereo unspecified) | inactive: 9.3%
41 | CP(=O)(OC12CC3CC(CC(C3)C1)C2)OC12CC3CC(CC(C3)C1)C2 | inactive: -15.1%
